Conditions: blood; after oral tacrolimus

12-hydroxy tacrolimus [12-HT]
mean AUCmetabolite/AUCparent ratio, fold higher in CYP3A5 expressors than nonexpressors: 2.7 fold

— PMC4038024 (Clinical pharmacology and therapeutics, 2012)
